Tested on: qPCR amplification of a diagnostic fragment of the Enterococcus spp. 23S rRNA gene (DNA plasmid standard)
Details: 762 mM IL; 10^4 DNA target copies

Compound	inhibition of the qPCR amplification
CCCCCCn1cc[n+](C)c1.[Cl-] [[C6mim]Cl, 1-Hexyl-3-methylimidazolium chloride, reference compound]	substantially interfered with the reaction
C[N+](C)(C)CCO [[Cho]DBP, Choline dibutylphosphate]	completely inhibited the amplification
CCCCCC(=O)[O-].C[N+](C)(C)CCO [[Cho]Hex, Choline hexanoate]	completely inhibited the amplification
